Consider two compounds from PubChem BioAssay AID434973 (Sanford-Burnham Center for Chemical Genomics, 2010).

Chains of the proteins cited; added tags and fusions are not shown. Residues count along the entry.
UniProt Q9BQF6, 706-1050 limits assumed: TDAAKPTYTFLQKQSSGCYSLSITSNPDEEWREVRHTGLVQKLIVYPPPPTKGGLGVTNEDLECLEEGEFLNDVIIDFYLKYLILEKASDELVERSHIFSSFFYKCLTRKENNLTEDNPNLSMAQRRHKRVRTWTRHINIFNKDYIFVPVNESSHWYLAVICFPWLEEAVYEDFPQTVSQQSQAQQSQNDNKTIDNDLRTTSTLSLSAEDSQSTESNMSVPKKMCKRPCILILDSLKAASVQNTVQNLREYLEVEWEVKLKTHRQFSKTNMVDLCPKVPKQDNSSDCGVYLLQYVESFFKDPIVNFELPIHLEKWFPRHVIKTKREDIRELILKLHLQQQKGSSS

The structures appear in SMILES notation. Only a part is listed here, and it is no random draw. Activity calls are given as the source filed them.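 Rule for the calls: active = inhibition above about 50% at the single test dose (limit read from the data); inactive = the rest.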

The assay addresses Sentrin-specific protease 7 (Homo sapiens) (UniProt Q9BQF6). The experiment in a line: blockers of human SENP7 peptidase activity – biochemical, luminescence, uHTS, primary screen (AID 434973).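 Note: plate controls were DMSO with enzyme for no effect and no enzyme buffer wells for full effect.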 The following applies: recombinant SENP7, Z-RLRGG-aminoluciferin luminescence, 40 min; at 5 µM; hits give high values.
Turning to `CCC(=O)N(c1ccccc1)C1(COC)CCN(CCn2nnn(CC)c2=O)CC1`, the inhibition is inactive: -15.9%.
For `CCC(=O)N(c1ccccc1)C1(COC)CCN(CCc2cccs2)CC1` the value was inactive: -2.24%.

By inhibition is commonly meant the change of the read-out against control, counted positive when it falls.
